Results: patent US20160151452A1
pKd: −log10 of the molar value.

Key:
EphB2-Fc = test: SPR titration (0.05-100 nM) on immobilised EphB2-Fc, Langmuir 1:1 fit
EphA6-Fc = test: SPR titration on immobilised EphA6-Fc, Langmuir 1:1 fit

| Substance | pKd (EphB2-Fc) | pKd (EphA6-Fc) |
| --- | --- | --- |
| GST-Azu 36-89 (from UniProt P08515 1-218) | 7.21 |  |
| GST-Azu 36-128 (from UniProt P08515 1-218) | 7.64 |  |
| ephrinA1-Fc (Fc fusion) |  | 8.11 |
